The test system of the data set is Nc1ccn([C@@H]2O[C@H](COP(=O)(O)OP(=O)(O)OP(=O)(O)O)[C@@H](O)[C@H]2F)c(=O)n1. The data set is described as follows: purified protein, by the assay type. The settings on record: pH 7.5.

Experimental findings from PMC4476725 (PLoS Pathogens, 2015) are described below.

What is called Km is the substrate concentration at which the rate is half of its maximum. Consider (Human respiratory syncytial virus A2), for which the Km came out at 0.12 ± 0.014 µM.
